Values of other authors as cited in US20120277265A1, “NOVEL POLYQUINOLINE DERIVATIVES AND THE THERAPEUTIC USE THEREOF” (CENTRE NATIONAL DE LA RECHERCHE SCIENTIFIQUE (C.N.R.S.), priority 2005, published 2012).

Details: 25° C., ionic strength 0.1-0.2, metal ion to chelator 1/1; cited from earlier work

SMILES: NCCN [EDA, ethylenediamine]
- log K1 (stability constant for the MLc species), Cu(II): 10.5
